# T1: LH receptors on bovine granulosa cells and bovine small luteal cells (bovine), Q28005
# T1 chain: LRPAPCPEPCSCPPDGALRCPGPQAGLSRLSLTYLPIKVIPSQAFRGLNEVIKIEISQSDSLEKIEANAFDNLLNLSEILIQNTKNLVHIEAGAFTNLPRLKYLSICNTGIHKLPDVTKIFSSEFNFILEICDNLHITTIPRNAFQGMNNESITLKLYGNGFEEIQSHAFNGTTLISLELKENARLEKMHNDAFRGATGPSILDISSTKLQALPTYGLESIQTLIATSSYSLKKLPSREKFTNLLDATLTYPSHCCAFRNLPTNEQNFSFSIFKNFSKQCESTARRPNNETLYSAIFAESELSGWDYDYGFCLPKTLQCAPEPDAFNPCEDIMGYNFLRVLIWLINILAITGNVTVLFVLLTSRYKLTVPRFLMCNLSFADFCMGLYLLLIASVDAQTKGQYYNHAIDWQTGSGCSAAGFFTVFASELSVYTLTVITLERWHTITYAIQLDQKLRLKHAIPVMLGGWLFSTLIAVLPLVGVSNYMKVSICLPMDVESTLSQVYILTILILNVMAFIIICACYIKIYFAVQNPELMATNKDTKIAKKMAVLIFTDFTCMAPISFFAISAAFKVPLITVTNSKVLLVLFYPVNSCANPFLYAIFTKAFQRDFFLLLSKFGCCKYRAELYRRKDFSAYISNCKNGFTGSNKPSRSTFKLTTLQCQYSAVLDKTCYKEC
# Target: T1, LH receptors on bovine granulosa cells …
# Experiment: cell-based or functional assay
binder,measurement,value
FALALKALKKALKKLKKALKKALSYAVALSCQCALCRR (modifications not checked) [hecate-bLH conjugate],cell killing of bovine granulosa cells at 1 µM (fold vs hecate alone),2
